{
  "sequences": {"note": "Chains of the proteins cited; added tags and fusions are not shown. Lines headed by an entry give the natural chain unless they say otherwise; changes in a name come on top.", "UniProt Q14524, whole entry": "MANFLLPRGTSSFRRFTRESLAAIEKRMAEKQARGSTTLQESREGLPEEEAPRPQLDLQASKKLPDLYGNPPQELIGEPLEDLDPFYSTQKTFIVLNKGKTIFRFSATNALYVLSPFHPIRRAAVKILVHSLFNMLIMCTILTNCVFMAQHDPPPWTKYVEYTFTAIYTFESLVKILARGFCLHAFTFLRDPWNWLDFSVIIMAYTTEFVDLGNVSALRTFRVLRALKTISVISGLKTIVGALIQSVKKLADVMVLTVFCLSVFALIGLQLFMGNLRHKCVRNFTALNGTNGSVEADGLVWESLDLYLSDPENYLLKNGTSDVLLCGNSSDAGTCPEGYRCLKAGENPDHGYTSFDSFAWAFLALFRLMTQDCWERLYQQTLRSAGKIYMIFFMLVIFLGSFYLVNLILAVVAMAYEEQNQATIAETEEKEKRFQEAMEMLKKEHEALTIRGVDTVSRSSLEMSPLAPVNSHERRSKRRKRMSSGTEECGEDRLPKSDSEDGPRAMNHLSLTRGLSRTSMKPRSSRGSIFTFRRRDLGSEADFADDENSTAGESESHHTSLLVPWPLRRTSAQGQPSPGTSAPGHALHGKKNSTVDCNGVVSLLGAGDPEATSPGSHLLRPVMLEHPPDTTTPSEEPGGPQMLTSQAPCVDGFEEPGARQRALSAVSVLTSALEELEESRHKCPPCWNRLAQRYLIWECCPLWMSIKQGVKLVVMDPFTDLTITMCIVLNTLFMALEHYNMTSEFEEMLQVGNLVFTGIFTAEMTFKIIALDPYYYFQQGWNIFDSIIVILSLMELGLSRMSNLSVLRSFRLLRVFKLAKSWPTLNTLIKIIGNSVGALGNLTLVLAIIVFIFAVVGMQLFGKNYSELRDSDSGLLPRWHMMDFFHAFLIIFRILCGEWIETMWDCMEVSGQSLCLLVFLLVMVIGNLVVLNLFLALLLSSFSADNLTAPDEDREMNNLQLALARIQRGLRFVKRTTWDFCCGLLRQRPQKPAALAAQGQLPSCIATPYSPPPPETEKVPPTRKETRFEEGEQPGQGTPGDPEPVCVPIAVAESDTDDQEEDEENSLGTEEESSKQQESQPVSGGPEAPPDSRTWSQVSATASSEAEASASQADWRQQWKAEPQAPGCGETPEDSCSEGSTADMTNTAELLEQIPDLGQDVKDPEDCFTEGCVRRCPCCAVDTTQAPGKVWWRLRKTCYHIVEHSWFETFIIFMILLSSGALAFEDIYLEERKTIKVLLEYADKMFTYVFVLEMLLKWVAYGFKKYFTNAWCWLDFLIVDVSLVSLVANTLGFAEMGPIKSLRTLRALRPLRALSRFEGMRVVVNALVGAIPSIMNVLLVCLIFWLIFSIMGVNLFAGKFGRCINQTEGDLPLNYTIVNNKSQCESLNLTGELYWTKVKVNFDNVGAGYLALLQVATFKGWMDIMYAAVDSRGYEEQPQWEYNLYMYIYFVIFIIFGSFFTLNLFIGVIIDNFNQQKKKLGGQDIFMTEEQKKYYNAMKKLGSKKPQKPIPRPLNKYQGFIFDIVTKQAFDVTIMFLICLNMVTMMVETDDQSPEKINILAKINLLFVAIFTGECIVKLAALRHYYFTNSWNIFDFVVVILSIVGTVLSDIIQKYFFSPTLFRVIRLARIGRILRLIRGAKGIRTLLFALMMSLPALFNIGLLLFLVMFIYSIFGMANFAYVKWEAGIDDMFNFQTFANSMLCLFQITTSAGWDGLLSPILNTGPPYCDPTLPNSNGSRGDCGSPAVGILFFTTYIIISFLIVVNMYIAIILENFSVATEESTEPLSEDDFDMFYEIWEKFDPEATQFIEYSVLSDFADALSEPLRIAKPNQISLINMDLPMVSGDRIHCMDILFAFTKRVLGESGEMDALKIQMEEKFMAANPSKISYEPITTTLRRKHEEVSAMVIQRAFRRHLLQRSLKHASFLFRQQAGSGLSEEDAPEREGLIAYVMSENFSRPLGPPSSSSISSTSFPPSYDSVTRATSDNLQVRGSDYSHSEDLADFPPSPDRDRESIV", "UniProt Q12809": "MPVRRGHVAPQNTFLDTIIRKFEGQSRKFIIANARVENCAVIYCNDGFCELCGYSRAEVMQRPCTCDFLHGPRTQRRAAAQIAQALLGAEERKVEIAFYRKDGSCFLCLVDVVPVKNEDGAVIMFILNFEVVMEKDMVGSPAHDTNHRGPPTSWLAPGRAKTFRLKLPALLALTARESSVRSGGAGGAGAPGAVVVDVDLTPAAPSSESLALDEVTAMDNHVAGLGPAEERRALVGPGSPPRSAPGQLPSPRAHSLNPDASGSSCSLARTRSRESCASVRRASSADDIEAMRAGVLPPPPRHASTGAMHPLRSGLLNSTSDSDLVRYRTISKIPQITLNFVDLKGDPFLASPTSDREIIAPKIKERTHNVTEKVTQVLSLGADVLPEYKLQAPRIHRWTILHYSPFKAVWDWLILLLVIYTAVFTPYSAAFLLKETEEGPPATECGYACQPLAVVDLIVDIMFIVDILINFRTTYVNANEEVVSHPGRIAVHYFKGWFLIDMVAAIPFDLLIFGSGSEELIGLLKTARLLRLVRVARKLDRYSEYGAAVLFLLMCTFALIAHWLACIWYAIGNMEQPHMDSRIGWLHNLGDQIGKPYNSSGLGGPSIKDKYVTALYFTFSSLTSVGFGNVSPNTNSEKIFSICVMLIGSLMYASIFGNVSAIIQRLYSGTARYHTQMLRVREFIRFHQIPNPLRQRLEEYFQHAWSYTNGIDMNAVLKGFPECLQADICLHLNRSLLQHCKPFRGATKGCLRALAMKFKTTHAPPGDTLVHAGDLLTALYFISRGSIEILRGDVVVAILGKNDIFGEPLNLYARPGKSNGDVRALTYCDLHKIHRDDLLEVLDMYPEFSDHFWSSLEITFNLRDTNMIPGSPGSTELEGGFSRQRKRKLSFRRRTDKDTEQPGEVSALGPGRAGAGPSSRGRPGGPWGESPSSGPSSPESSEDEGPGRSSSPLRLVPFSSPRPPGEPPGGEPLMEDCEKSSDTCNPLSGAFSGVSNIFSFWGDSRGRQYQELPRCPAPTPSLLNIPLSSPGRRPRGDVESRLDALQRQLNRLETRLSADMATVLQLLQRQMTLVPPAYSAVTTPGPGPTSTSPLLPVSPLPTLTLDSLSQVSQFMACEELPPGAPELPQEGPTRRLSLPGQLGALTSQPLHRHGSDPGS"},
  "source": "patent US20260001922A1",
  "about": "“PEPTIDES TARGETING SODIUM CHANNELS TO TREAT PAIN” (priority 2022, published 2026)",
  "key": {"[1]": {"biological_target": "human Nav1.5 (Homo sapiens, UniProt Q14524)", "test": "in vitro", "assay_type": "cell-based"}, "[2]": {"biological_target": "hERG channel (Homo sapiens, UniProt Q12809)"}},
  "data": [
    {"molecule": "CSCC[C@@H]1NC(=O)[C@H](Cc2c[nH]c3ccccc23)NC(=O)[C@H](CCCCN)NC(=O)[C@H](CCC(N)=O)NC(=O)[C@@H](NC(=O)[C@@H](N)CCC(N)=O)CSSC[C@@H]2NC(=O)[C@@H]3CSSC[C@@H](C(=O)N[C@@H](CCCNC(=N)N)C(=O)N[C@@H](CCCCN)C(=O)N[C@@H](CCC(=O)O)C(=O)N[C@@H](CC(C)C)C(=O)N[C@@H](CC(C)C)C(N)=O)NC(=O)[C@H](Cc4c[nH]c5ccccc45)NC(=O)[C@H](CC(C)C)NC(=O)[C@H](CCCNC(=N)N)NC(=O)[C@H](CSSC[C@H](NC(=O)[C@H]([C@@H](C)O)NC(=O)[C@H](CCC(N)=O)NC1=O)C(=O)N[C@@H](CC(=O)O)C(=O)N[C@@H](CCCCN)C(=O)N[C@@H](CC(=O)O)C(=O)N[C@@H](CCCNC(=N)N)C(=O)N[C@@H](CCCCN)C(=O)N3)NC(=O)[C@H](CCCNC(=N)N)NC(=O)[C@H](Cc1ccccc1)NC(=O)CNC(=O)[C@H](CCC(=O)O)NC2=O", "note": "[PTx2-3127]", "values": [
      {"measurement": "IC50", "setting": "[1]; pH 7.4", "result": 137, "unit": "µM"},
      {"measurement": "IC50", "setting": "[1]; pH 7.4, hNav1.5 IC50", "result": "> 130", "unit": "µM"}
    ]},
    {"molecule": "CSCC[C@@H]1NC(=O)[C@H](Cc2c[nH]c3ccccc23)NC(=O)[C@H](CCCCN)NC(=O)[C@H](CCC(N)=O)NC(=O)[C@@H](NC(=O)[C@@H](N)Cc2c[nH]cn2)CSSC[C@@H]2NC(=O)[C@@H]3CSSC[C@@H](C(=O)N[C@@H](CCCNC(=N)N)C(=O)N[C@@H](CCCCN)C(=O)N[C@@H](CCC(=O)O)C(=O)N[C@@H](CC(C)C)C(=O)N[C@@H](CC(C)C)C(N)=O)NC(=O)[C@H](Cc4c[nH]c5ccccc45)NC(=O)[C@H](CC(C)C)NC(=O)[C@H](CCCNC(=N)N)NC(=O)[C@H](CSSC[C@H](NC(=O)[C@H]([C@@H](C)O)NC(=O)[C@H](CCC(N)=O)NC1=O)C(=O)N[C@@H](CC(=O)O)C(=O)N[C@@H](CCCCN)C(=O)N[C@@H](CC(=O)O)C(=O)N[C@@H](CCCNC(=N)N)C(=O)N[C@@H](CCCCN)C(=O)N3)NC(=O)[C@H](CCCNC(=N)N)NC(=O)[C@H](Cc1ccccc1)NC(=O)CNC(=O)[C@H](CCC(=O)O)NC2=O", "note": "[PTx2-3258]", "values": [
      {"measurement": "IC50", "setting": "[2]", "result": 1.86, "unit": "µM"}
    ]}
  ]
}
